The numbers were not newly measured in patent EP1200114B1, “PPAR DELTA INHIBITORS FOR THE TREATMENT OF CARDIOVASCULAR DISEASES” (priority 1999, dated 2001), which cites them from elsewhere.

Chains of the proteins cited; added tags and fusions are not shown. Lines headed by an entry give the natural chain unless they say otherwise; changes in a name come on top.
UniProt Q03181, whole entry: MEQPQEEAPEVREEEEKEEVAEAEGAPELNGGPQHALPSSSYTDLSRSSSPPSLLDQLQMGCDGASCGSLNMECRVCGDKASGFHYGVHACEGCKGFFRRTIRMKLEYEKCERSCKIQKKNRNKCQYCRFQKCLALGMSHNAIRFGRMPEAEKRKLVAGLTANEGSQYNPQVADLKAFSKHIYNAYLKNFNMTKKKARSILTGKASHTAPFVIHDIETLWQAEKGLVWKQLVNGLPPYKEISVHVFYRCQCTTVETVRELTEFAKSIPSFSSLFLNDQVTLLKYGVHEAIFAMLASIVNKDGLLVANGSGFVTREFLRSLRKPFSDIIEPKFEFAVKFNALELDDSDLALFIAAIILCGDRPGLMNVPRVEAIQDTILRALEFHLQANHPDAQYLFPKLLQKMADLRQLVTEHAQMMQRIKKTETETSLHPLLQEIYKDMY

The target of the series is hPPARδ (Homo sapiens, UniProt Q03181). Conditions: radioactive ligand for PPARδ; cited from earlier work.

Turning to `CCCc1c(OCCCSc2ccc(CC(=O)O)cc2Cl)ccc2c(C(F)(F)F)noc12`, the dissociation constant (Kd) was 1 nM.

As usually defined, the Kd is the constant that tells how readily two partners part at equilibrium.
